# Source: patent US4376119A, “Benzothiazine derivative” (priority 1981, dated 1983)
# Read-outs that look alike come from different tables or passages of the source.
# Test system: mice
# Conditions: p.o.
smiles,measurement,setting,value
"CN1C(C(=O)Nc2ccccn2)C(=O)c2ccccc2S1(=O)=O (centres unmarked) [Piroxicam, 3,4-dihydro-2-methyl-4-oxo-N-(2-pyridyl)-2H-1,2-benzothiazine-3-carboxamide 1,1-dioxide]",Number of deaths/total number of test animals,100 mg/kg,0/5
same,Number of deaths/total number of test animals,200 mg/kg,1/5
same,Number of deaths/total number of test animals,400 mg/kg,1/5
same,Number of deaths/total number of test animals,650 mg/kg,4/5
same,Number of deaths/total number of test animals,800 mg/kg,5/5
